In PubChem BioAssay (NCATS):
Only a part is listed here, and it is no random draw. Inconclusive results are not listed. For some assays here: Measured potencies and affinities stand elsewhere. Activity calls are given as the source filed them. Unless noted, calls come from the whole dose curve; as a rule, active = well fitted curve in the direction sought with a large enough effect; inconclusive = small, poorly fitted or top-dose-only effect, or another doubt; inactive = no such curve, though single readings can be large; an effect the other way counts as inactive or inconclusive.

Legend:
[1] = AP1 Signaling Pathway (AID 357; active = well fitted curve in either direction with a large enough effect, not every such curve was filed as active;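 note: ME-180 reporter cells stimulated with EGF at its EC50 level; % is set by controls: 0 for no effect and ±100 for the full control effect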); details: ME-180 AP-1-bla reporter, EGF-induced, beta-lactamase ratio, 5 h; at 7.69 µM (top of the series) unless noted
Summary of the method: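 First, ME-180 AP-1-bla cells were cultured overnight at 37 °C in low-serum Opti-MEM. Next, titrated compounds with EC50 EGF were incubated 5 hours. Finally, CCF4 was added for 2.5 hours and the 460/530 nm ratio recorded.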

[2] = Stat Signaling Pathway (AID 446; active = well fitted curve in either direction with a large enough effect, not every such curve was filed as active;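 note: ME-180 cervical cancer cells given 40 pM IL-6 alongside compound; SIE-controlled beta-lactamase reporter measured as 460/530 nm FRET emission ratio; % is set by controls: 0 for no effect and ±100 for the full control effect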); details: ME-180 (cervical carcinoma) SIE beta-lactamase reporter, IL-6 stimulated, 5 h; at 7.69 µM (top of the series) unless noted
Summary of the method: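 FRET read-out (405 nm excitation, 460/530 nm emission) of a beta-lactamase reporter under a STAT-inducible element in ME-180 cervical carcinoma cells. Cells with compound receive 40 pM IL-6 for 5 h. Values are normalised to AC90 stimulation and AC90 JAK-inhibitor controls.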

[3] = molecular target: Mitogen-activated protein kinase 10 (Mus musculus) (UniProt Q61831); experiment: JNK3 AlphaScreen Assay (AID 530; active = well fitted curve in either direction with a large enough effect, not every such curve was filed as active;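 note: kinase came from lysate of stimulated human HepG2 cells; signal reports phosphorylation of biotinylated GST-cJun 1-79 at Ser73 with 10 µM ATP; % is set by controls: 0 for no effect and ±100 for the full control effect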); details: JNK3 lysate, c-Jun phosphorylation; at 11.4 µM (top of the series) unless noted
Summary of the method: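 Biotinylated GST-cJun(1-79) served as substrate for JNK3 in HepG2 lysates stimulated with IL-1beta and TNF-alpha. ATP was 10 uM final, pH 7.6. Ser73 phosphorylation was quantified by AlphaScreen (680 nm excitation).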

[4] = molecular target: 3',5'-cyclic-AMP phosphodiesterase 4B (Homo sapiens) (UniProt Q07343); experiment: qHTS Assay for Inhibitors of PDE-IV (AID 607; active = well fitted activation curve with a large enough effect in the main read-out, with a control signal flat, not every such curve was filed as active; note: % of control where 0% means no effect); details: HEK293 ACTOne CNG channel cells, membrane potential fluorescence; at 22.9 µM (top of the series)
Summary of the method: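 Cell-based read-out of cAMP via a modified cyclic nucleotide-gated channel and membrane potential dye (535/590 nm) in HEK293 cells expressing PDE4 endogenously. Compounds tested up to 22.9 uM final; 100 uM RO 20-1724 reference.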

[5] = molecular target: Guanine nucleotide-binding protein G(i) subunit alpha-1 (Homo sapiens) (UniProt P63096); experiment: qHTS Assay for Inhibitors of RGS12 GoLoco Motif Activity (Green Fluorophore) (AID 879); details: Galphai1/FITC-RGS12 GoLoco peptide, fluorescence polarization; at 57.1 µM (top of the series);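 note: 0% = labeled peptide with Gαi1 and full inhibition = labeled peptide alone without protein; negative values mean loss of peptide binding seen as reduced polarization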
Summary of the method: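 A drop in FITC polarization marked displacement of the FITC-tagged RGS12 GoLoco peptide (10 nM) from Gαi1 (50 nM). Compounds were incubated 10 min at room temperature in Tris pH 7.5 buffer containing 150 mM NaCl, 0.1 mM GDP and 0.05% NP40; unlabeled peptide titration served as control.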

[6] = qHTS Assay for Identification of Small Molecule Agonists for Thrombopoietin (TPO) Signaling Pathway (AID 917); details: TPO signaling pathway reporter cells, agonist qHTS, stimulated with TPO at its EC50; at 38.5 µM (top of the series); note: % is set by controls: 0 for no effect and ±100 for the full control effect
[7] = molecular target: Pyruvate kinase PKM (Homo sapiens) (UniProt P14618); experiment: qHTS Assay for Activators of Human Muscle Pyruvate Kinase (AID 954; active = well fitted curve in the direction sought with a large enough effect, not every such curve was filed as active;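 note: 0% = uninhibited enzyme and -100% = no enzyme or full thiadiazolimine inhibition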); details: purified human PKM1 enzyme activity; at 57.5 µM (top of the series)
Summary of the method: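 ATP production by PKM2 detected via luciferase luminescence after 1 h room-temperature reaction (0.1 nM enzyme, PEP at Km 0.5 mM, ADP 0.1 mM, pH 7.2 imidazole buffer). Inhibition scaled to no-enzyme control; activation referenced to 0.3 nM enzyme wells.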

[8] = molecular target: Alpha-galactosidase A (Homo sapiens) (UniProt P06280); experiment: Counterscreen for Glucocerebrosidase Inhibitors: qHTS Assay for Human alpha-Galactosidase at pH 4.5 (AID 992); details: purified enzyme, fluorogenic substrate; at 76.9 µM (top of the series); note: 0% is about no effect
Summary of the method: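 Fluorogenic 1536-well qHTS at pH 4.5 (citrate, Tween-20): 2 nM enzyme, 80 uM 4-MU-alpha-galactoside, 20 min room temperature, NaOH/glycine stop. Titration 0.7 nM to 77 uM, data normalized to no-enzyme and full-activity controls, Hill-fitted AC50.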

[9] = molecular target: alpha-glucosidase (Oryza sativa, rice) (UniProt Q653V4); experiment: Counterscreen for Glucocerebrosidase Inhibitors: qHTS Assay for Rice alpha-Glucosidase at pH 5.0 (AID 997); details: rice alpha-glucosidase enzyme activity; at 76.9 µM (top of the series);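 note: 0% = full activity with enzyme and -100% = basal without enzyme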
Summary of the method: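 Endpoint fluorogenic assay at pH 5.0: compounds (0.7 nM to 77 uM) titrated against 4 nM rice enzyme and 400 uM 4-MU-alpha-glucoside for 20 min at room temperature; NaOH/glycine stop, read ex 365/em 440 nm, Hill-fitted AC50.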

[10] = molecular target: Estrogen receptor (Homo sapiens) (UniProt P03372); experiment: qHTS assay for small molecule antagonists of estrogen receptor alpha signaling (AID 588513; active = well fitted curve in the direction sought with a large enough effect in the signal ratio, with a control signal flat, not every such curve was filed as active; the % refers to the signal ratio; note: % is set by controls: 0 for no effect and ±100 for the full control effect); details: ER-alpha-UAS-bla HEK293, beta-lactamase ratio, antagonist mode; at 76.9 µM (top of the series)
[11] = molecular target: Estrogen receptor (Homo sapiens) (UniProt P03372); experiment: qHTS assay for small molecule agonists of estrogen receptor alpha signaling (AID 588514; calls by dose curve;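 note: 0% = vehicle only and 100% = reference agonist; nearly all actives have a fitted effect of over 70% in size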); details: ER-alpha-UAS-bla HEK293, beta-lactamase ratio, 18 h, percent of full estradiol response, vehicle zero; at 76.8 µM (top of the series)
[12] = molecular target: Androgen receptor (Homo sapiens) (UniProt P10275); experiment: qHTS assay for small molecule antagonists of androgen receptor signaling (AID 588516; active = well fitted curve in the direction sought with a large enough effect in the signal ratio, with a control signal flat, not every such curve was filed as active; the % refers to the signal ratio; note: % is set by controls: 0 for no effect and ±100 for the full control effect); details: AR-UAS-bla HEK293, beta-lactamase ratio, antagonist mode, 16 h; at 76.8 µM (top of the series)
[13] = molecular target: Peroxisome proliferator-activated receptor gamma (Homo sapiens) (UniProt P37231); experiment: qHTS assay for small molecule agonists of peroxisome proliferator-activated receptor gamma signaling (AID 588536; active = well fitted curve in the direction sought with a large enough effect in the signal ratio, with a control signal flat, not every such curve was filed as active; the % refers to the signal ratio;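 note: 0% = DMSO basal wells and 100% = rosiglitazone at 2 µM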); details: HEK293 PPARg-UAS-bla, beta-lactamase ratio, 16 h, percent of rosiglitazone response, DMSO as zero; at 76.7 µM (top of the series)
[14] = molecular target: Vitamin D3 receptor (Homo sapiens) (UniProt P11473); experiment: qHTS assay for small molecule antagonists of vitamin D receptor signaling (AID 588541; calls by dose curve); details: HEK293T VDR-UAS-bla, beta-lactamase ratio, antagonist mode; at 76.7 µM (top of the series)
Summary of the method: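 VDR-UAS-bla HEK293T cells (2000/well, 2% charcoal-stripped FBS) were treated with titrated compounds plus 1-alpha,25-dihydroxyvitamin D3 (50 nM or 3 nM final) for 16 h at 37 C. CCF4 beta-lactamase fluorescence was read; Hill fits gave IC50.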

[15] = molecular target: Vitamin D3 receptor (Homo sapiens) (UniProt P11473); experiment: qHTS assay for small molecule agonists of vitamin D receptor signaling (AID 588543; calls by dose curve;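 note: 0% = DMSO basal and 100% = reference agonist control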); details: HEK293T VDR-UAS-bla, beta-lactamase ratio, 16 h; at 76.8 µM (top of the series)
Summary of the method: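 Reporter cells (HEK293T, VDR-UAS-bla) were seeded in medium with 2% charcoal-stripped serum and incubated 5 h, then compounds in concentration series were added for 16 h at 37 °C. Stimulation was scaled between DMSO basal and 50 nM 1α,25-dihydroxyvitamin D3.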

[16] = molecular target: Retinoic acid receptor RXR-alpha (Homo sapiens) (UniProt P19793); experiment: qHTS assay for small molecule agonists of retinoid X receptor alpha signaling (AID 588544; calls by dose curve;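 note: 0% = DMSO basal wells and 100% = reference agonist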); details: HEK293T RXRa-UAS-bla, beta-lactamase reporter, 18 h; at 76.7 µM (top of the series)
[17] = molecular target: Thyroid hormone receptor beta (Homo sapiens) (UniProt P10828); experiment: qHTS assay for small molecule agonists of thyroid hormone receptor beta signaling (AID 588545; calls by dose curve;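 note: 0% = DMSO only and 100% = 10 nM T3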); details: TR-UAS-bla GripTite HEK 293, beta-lactamase ratio, agonist mode, 18 h, percent of T3 response, DMSO as zero; at 76.7 µM (top of the series)
Summary of the method: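 Compounds were tested as agonists in TR-UAS-bla-GripTite HEK 293 cells. After 18 hrs at 37 C, CCF4 substrate was added and fluorescence read after 2 hrs at room temperature.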

[18] = molecular target: Retinoic acid receptor RXR-alpha (Homo sapiens) (UniProt P19793); experiment: qHTS assay for small molecule antagonists of retinoid X receptor alpha signaling (AID 588546; active = well fitted inhibition curve with a large enough effect in the signal ratio, with a control signal flat, not every such curve was filed as active; the % refers to the signal ratio); details: HEK293T RXRa-UAS-bla, beta-lactamase ratio, antagonist mode
Summary of the method: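 Beta-lactamase reporter inhibition, read as CCF4 fluorescence ratio (ex 405, em 460/530 nm) after 2 h at RT. HEK293T UAS-bla cells, 2500/well, were stimulated with 9-cis-RA at 500 or 100 nM final alongside test compound for 18 h at 37 C.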

[19] = qHTS assay for small molecule agonists of the antioxidant response element (ARE) signaling pathway (AID 651741; active = well fitted activation curve with a large enough effect in the signal ratio; the % refers to the signal ratio; note: % of control where 0% means no effect); details: HepG2 ARE-bla reporter, beta-lactamase FRET ratio, 16 h; at 96 µM (top of the series)
Summary of the method: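 Beta-lactamase reporter expression driven by the antioxidant response element in HepG2 cells was detected by fluorescence with LiveBLAzer B/G FRET substrate (2 h, room temperature) following 16 h compound treatment at 37 C.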

[20] = qHTS assay for small molecule activators of the p53 signaling pathway (AID 651743; active = well fitted activation curve with a large enough effect in the signal ratio, not every such curve was filed as active; the % refers to the signal ratio; note: % of control where 0% means no effect); details: HCT-116 p53RE-bla, beta-lactamase FRET ratio, 16 h; activation: active compounds read high
[21] = qHTS assay for small molecule activators of the nuclear factor-kappa B (NF-kB) signaling pathway (AID 651749; active = well fitted activation curve with a large enough effect in the signal ratio; the % refers to the signal ratio; note: % of control where 0% means no effect); details: NF-kB-bla ME-180 cells, beta-lactamase FRET ratio, 16 h; active compounds read high
Summary of the method: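 Beta-lactamase reporter expression, controlled by NF-kB response elements in ME-180 cells, was quantified fluorometrically via FRET disruption; cells at 2,000/well had been incubated with 23 nL test compound for 16 hr.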

[22] = qHTS assay for environmental chemicals that activate the Aryl hydrocarbon Receptor (AhR) signaling pathway (AID 651777); details: 1A2-DRE human hepatoma cells, luciferase, 24 h; active compounds read high; note: % of control where 0% means no effect; nearly all actives have a fitted effect of over 15% in size
Summary of the method: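 Human hepatoma 1A2-DRE cells, stably carrying a dioxin response element and CYP1A2 promoter driving luciferase, were exposed to compounds for 24 hr at 37 C and 5% CO2. Luciferase signal was then read after 30 min One-Glo at room temperature.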

[23] = molecular target: Peroxisome proliferator-activated receptor alpha (Homo sapiens) (UniProt Q07869); experiment: qHTS assay for small molecule agonists of the peroxisome proliferator-activated receptor alpha (PPARalpha) signaling pathway (AID 651778); details: PathHunter PPARalpha complementation, chemiluminescence, 6 h; active compounds read high; note: % of control where 0% means no effect
[24] = qHTS assay for small molecule agonists of the antioxidant response element (ARE) signaling pathway measured by Nrf2-dependant transcriptional activity (AID 720636; active = well fitted curve in the direction sought with a large enough effect in the repeat runs; an effect the other way counts as inactive or inconclusive; note: % of control where 0% means no effect); details: ARE-luc HepG2, Nrf2 luciferase reporter, 16 h; at 92.4 µM (top of the series)
[25] = qHTS assay for small molecule agonists of the antioxidant response element (ARE) signaling pathway measured by Nrf2-dependant transcriptional activity - cell viability counter screen (AID 720653; active = well fitted curve in the direction sought with a large enough effect in the repeat runs; an effect the other way counts as inactive or inconclusive; note: % is set by controls: 0 for no effect and ±100 for the full control effect); details: ARE-bla HepG2 viability, CellTiter-Glo ATP luminescence, 16 h; active compounds read low
Summary of the method: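 ARE-bla HepG2 cells (2,000/well) rested 5 hrs at 37C/5% CO2, then exposed to compounds in DMSO for 16 hrs. Viability was read in the same wells as intracellular ATP by luminescence, 30 min at room temperature after reagent addition.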

[26] = qHTS assay for cell viability of HEK293 cells (AID 743288); details: ATP luminescence (CellTiter-Glo), 18 h; max response: active compounds read low; note: % is set by controls: 0 for no effect and ±100 for the full control effect; nearly all actives have a fitted effect of over 50% in size
Summary of the method: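 Viable-cell counts were inferred from luciferase-based ATP content in HEK293 cells seeded at 2,000/well, pre-incubated ≥5 h, then dosed with DMSO-solubilised compounds for 18 h at 37 C.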

[27] = qHTS assay for cell viability of the p53RE-bla HCT-116 cell line (AID 743292); note: % is set by controls: 0 for no effect and ±100 for the full control effect; nearly all actives have a fitted effect of over 55% in size
Summary of the method: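 CellSensor p53RE-bla HCT-116 cells, 4,000/well, preincubated 5 h at 37 C, then exposed to compounds in DMSO for 16 h at 37 C. Viability read as CellTiter-Glo luminescence (intracellular ATP) after 30 min at room temperature.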

[28] = molecular target: Nuclear receptor subfamily 1 group I member 2 (Rattus norvegicus) (UniProt Q9R1A7); experiment: qHTS assay for small molecule activators of the rat pregnane X receptor (rPXR) signaling pathway (AID 651751; call rule not given here; note: 0% is about no effect); details: rPXR reporter cells, luciferase (One-Glo), 24 h
[29] = qHTS assay for small molecule activators of the human pregnane X receptor (PXR) signaling pathway (AID 720659; call rule not given here; note: 0% is about no effect); details: DPX-2 HepG2 CYP3A4-luciferase, 24 h; at 92.3 µM (top of the series)
[30] = molecular target: Cytochrome P450 3A4 (Homo sapiens) (UniProt P08684); experiment: qHTS Assay for Activators of Cytochrome P450 3A4 (AID 885); details: recombinant CYP3A4, Luciferin-PPXE luminescence, 60 min; at 57.1 µM (top of the series); note: nearly all actives have a fitted effect of over 65% in size

CN(C(=O)Cc1ccc(Cl)c(Cl)c1)[C@@H]1CC[C@@]2(CCCO2)C[C@H]1N1CCCC1
inactive: activity change, negative = inhibition [1] 9.11% [at 38 µM] | activity, negative = inhibition [2] -12% [at 38 µM] | activity change, negative = inhibition [3] 12.1% [at 57.1 µM] | activation (PDE inhibition) [4] 0.969% | activity, negative = inhibition [5] -1.7% | activity, positive = activation [6] -21.6% | activity change, negative = inhibition [7] -9.6% | activity change, negative = inhibition [8] -2.65% | activity change, negative = inhibition [9] -4.55%

CCCCO[P+](=O)OCCCC
inactive: activity, negative = inhibition [10] -29.1% | activation [11] -0.253% | activity change, negative = inhibition [12] -7.35% | activation [13] -4.57% | activity change, negative = inhibition [14] 5.31% | activation [15] 4.59% | activation [16] -2.53% | activation [17] 1.18% | max response [18] 7.28% | activation [19] 2.86% | activation [20] -3.49% | activation [21] -0.678% | activation [22] -1.61% | max response [23] -4.08% | activation [24] -0.888% | max response [25] -3.25% | max response [26] -14% | Potency [27] | max response [28] 12.9% | activation [29] 10.2%

CCCCOP(=O)(OCCCC)OCCCC
inactive: activity change, positive = activation [30] -47.9% | activation [21] -2.55% | activation [29] 14.6%
